According to US20040002117A1, “Specific inhibitors of NFAT activation by calcineurin and their use in treating immune-related diseases” (priority 1998, published 2004):

Target: calcineurin
Assay: cell-based or functional assay

inhibition of in vitro dephosphorylation of HA-NFAT1(1-460)-GFP and HA-NFAT4(1-407)-GFP in HEK-293 lysates by calcineurin/calmodulin (100-900 nM): > 400 µM | inhibition of in vitro dephosphorylation of HA-NFAT1(1-460)-GFP by calcineurin (200 nM) and calmodulin (Western blot): > 400 µM
Substance: CM2 mutant 26-mer peptide
